Source: PubChem BioAssay AID504847 (National Center for Advancing Translational Sciences (NCATS), 2011)
The list shows a part of the results, in another mix than the full data. Records with an inconclusive call do not appear. Activity calls are given as the source filed them. Calls come from the whole dose curve; as a rule, active = well fitted inhibition curve with a large enough effect; inconclusive = small, poorly fitted or top-dose-only effect, or another doubt; inactive = no such curve, though single readings can be large or run the other way.

Amino acid sequences for entries named in this document (tags omitted).
UniProt P11473, whole entry: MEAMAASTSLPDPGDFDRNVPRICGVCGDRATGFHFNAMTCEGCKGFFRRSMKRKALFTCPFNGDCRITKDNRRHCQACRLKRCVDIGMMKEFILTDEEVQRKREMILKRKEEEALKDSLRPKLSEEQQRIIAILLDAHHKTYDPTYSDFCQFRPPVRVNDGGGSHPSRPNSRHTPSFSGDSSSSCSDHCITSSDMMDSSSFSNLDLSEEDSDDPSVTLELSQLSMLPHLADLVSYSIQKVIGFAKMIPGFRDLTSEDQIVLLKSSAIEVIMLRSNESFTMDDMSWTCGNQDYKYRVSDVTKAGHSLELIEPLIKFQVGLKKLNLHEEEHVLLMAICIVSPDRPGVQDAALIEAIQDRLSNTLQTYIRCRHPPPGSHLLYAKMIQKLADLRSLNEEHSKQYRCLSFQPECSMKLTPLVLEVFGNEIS

The compounds below were run against Vitamin D3 receptor (Homo sapiens) (UniProt P11473) (assay: Inhibitors of the vitamin D receptor (VDR): qHTS). Conditions: VDR-SRC2-3 peptide fluorescence polarization, 2 h; max response, negative = inhibition: active compounds read low.
% is set by controls: 0 for no effect and ±100 for the full control effect; potency is the fitted concentration of half-maximal effect.

Question: How did the max response, negative = inhibition turn out when `O=[N+]([O-])c1ccc2c(c1)C=Nc1ccccc1O2` was run?
Answer: The max response, negative = inhibition was inactive: -29.9%.

Question: With `Cc1ccc2nc3c(c(C)c2c1)CC(C(Cl)Cl)S3` (stereo unspecified) as the compound, how does the max response, negative = inhibition read?
Answer: Its max response, negative = inhibition is inactive: 10.1%.

Question: For `Cc1cccc(C)c1OP(C)(N)=O` (stereo unspecified), which max response, negative = inhibition is on record?
Answer: Its max response, negative = inhibition is inactive: 16.9%.

Question: With `O=C(O)C(O)(c1ccccc1)c1ccccc1` as the compound, how does the max response, negative = inhibition read?
Answer: Its max response, negative = inhibition is inactive: 10.3%.

Question: How did the max response, negative = inhibition turn out when `Cc1ccc(OP(=O)(Nc2ccc([N+](=O)[O-])cn2)Oc2ccc(C)cc2)cc1` was run?
Answer: The max response, negative = inhibition was inactive: -15.3%.

Question: With `CC(C)(C)c1ccc(OP(C)(=O)Nc2ccc(SC(F)(F)F)cc2)cc1` (stereo unspecified) as the compound, how does the max response, negative = inhibition read?
Answer: The max response, negative = inhibition was inactive: -27.1%.

Question: `COc1cc(C(=O)NCC2(N3CCOCC3)CCCCC2)ccc1OCC(C)C` was tested. Which max response, negative = inhibition did it give?
Answer: The max response, negative = inhibition was inactive: 4.42%.

Question: For `O=[As](O)(c1ccc(O)cc1)c1ccccc1O`, which max response, negative = inhibition is on record?
Answer: The max response, negative = inhibition was inactive: 3.07%.

Question: Which max response, negative = inhibition does the source give for `O=C(O)C1(O)c2ccccc2-c2ccccc21` here?
Answer: The max response, negative = inhibition was inactive: -24.9%.

Question: For `C[As](=O)(O)c1cccc(C(=O)O)c1`, which max response, negative = inhibition is on record?
Answer: The max response, negative = inhibition was inactive: -6.96%.

Question: With `O=[N+]([O-])c1cc([N+](=O)[O-])c(Nc2cccnc2)c([N+](=O)[O-])c1` as the compound, how does the max response, negative = inhibition read?
Answer: Its max response, negative = inhibition is inactive: -8.13%.

Question: For `Cc1cc(C)cc(OP(C)(N)=O)c1` (stereo unspecified), which max response, negative = inhibition is on record?
Answer: Its max response, negative = inhibition is inactive: -16.8%.

Question: How did the max response, negative = inhibition turn out when `COc1ccc(OP(C)(=O)Nc2cccc(F)c2)cc1` (stereo unspecified) was run?
Answer: The max response, negative = inhibition was inactive: -1.72%.

Question: Which max response, negative = inhibition does the source give for `O=[N+]([O-])c1cc([N+](=O)[O-])c(-c2ccn[nH]2)s1` here?
Answer: Its max response, negative = inhibition is inactive: -4.71%.

Question: How did the max response, negative = inhibition turn out when `CC(C)NC(=O)NP(=O)(Oc1ccccc1)Oc1ccccc1` was run?
Answer: Its max response, negative = inhibition is inactive: 22.5%.

Question: For `COc1ccccc1OP(C)(=O)Nc1cc(Cl)ccc1C` (stereo unspecified), which max response, negative = inhibition is on record?
Answer: The max response, negative = inhibition was inactive: -3.7%.

Question: How did the max response, negative = inhibition turn out when `O=C(OC1CN2CCC1CC2)c1cccc2[nH]cnc12` (stereo unspecified) was run?
Answer: Its max response, negative = inhibition is inactive: -2.42%.

Question: `COC(=O)C1(C)COP(=O)(N2CCCCCC2)OC1` (stereo unspecified) was tested. Which max response, negative = inhibition did it give?
Answer: Its max response, negative = inhibition is inactive: 3.21%.

Question: `Cc1ccc(NP(C)(=O)Oc2ccccc2)c(C)c1` (stereo unspecified) was tested. Which max response, negative = inhibition did it give?
Answer: The max response, negative = inhibition was inactive: 6.3%.

Question: How did the max response, negative = inhibition turn out when `CC(C)c1ccc(OP(=O)(Nc2ccccn2)Oc2ccccc2F)cc1` (stereo unspecified) was run?
Answer: The max response, negative = inhibition was inactive: 0.813%.

Question: With `COc1ccccc1OP(C)(=O)Nc1ccc(C)cc1` (stereo unspecified) as the compound, how does the max response, negative = inhibition read?
Answer: Its max response, negative = inhibition is inactive: -2.37%.

Question: Which max response, negative = inhibition does the source give for `ClCCSc1nnc(-c2cccnc2)o1` here?
Answer: Its max response, negative = inhibition is inactive: -6.36%.

Question: `CCOC(=O)c1ccc(NP(C)(=O)Oc2ccccc2)cc1` (stereo unspecified) was tested. Which max response, negative = inhibition did it give?
Answer: Its max response, negative = inhibition is inactive: -9.32%.

Question: How did the max response, negative = inhibition turn out when `COc1cc(I)ccc1[As](=O)(O)O` was run?
Answer: Its max response, negative = inhibition is inactive: 10.1%.

Question: How did the max response, negative = inhibition turn out when `COc1ccc2nc(NP(=O)(c3ccccc3)c3ccccc3)sc2c1` was run?
Answer: Its max response, negative = inhibition is inactive: -4.56%.

Question: For `O=P1(N(CCCl)CCCl)Nc2ccccc2N1`, which max response, negative = inhibition is on record?
Answer: Its max response, negative = inhibition is inactive: -9.68%.

Question: For `O=P1(N(CCCl)CCCl)OCCCN1CCCl` (stereo unspecified), which max response, negative = inhibition is on record?
Answer: The max response, negative = inhibition was inactive: -5.04%.

Question: Which max response, negative = inhibition does the source give for `Cc1cc(=O)[nH]c(N[N+](=O)[O-])n1` here?
Answer: Its max response, negative = inhibition is inactive: -7.74%.

Question: How did the max response, negative = inhibition turn out when `CCN(CC)CCCOC(=O)C(O)(c1ccccc1)c1ccccc1` was run?
Answer: Its max response, negative = inhibition is inactive: -3.77%.

Question: With `Cc1c2c(nc3ccccc13)SC(C(Cl)Cl)C2` (stereo unspecified) as the compound, how does the max response, negative = inhibition read?
Answer: The max response, negative = inhibition was inactive: -24.3%.

Question: For `COc1ccc(N/C(=N/P(=O)(N2CCOCC2)N2CCOCC2)N2CCOCC2)cc1`, which max response, negative = inhibition is on record?
Answer: Its max response, negative = inhibition is inactive: -6.27%.

Question: Which max response, negative = inhibition does the source give for `Cc1cc(C)cc(OP(C)(=O)Nc2ccc(SC(F)(F)F)cc2)c1` (stereo unspecified) here?
Answer: Its max response, negative = inhibition is inactive: -4.24%.

Question: For `O=C(Nc1ccncc1[N+](=O)[O-])c1ccc([N+](=O)[O-])cc1[N+](=O)[O-]`, which max response, negative = inhibition is on record?
Answer: Its max response, negative = inhibition is inactive: 20.2%.

Question: With `CP(=O)(NC(=O)Nc1ccccc1)Oc1ccccc1` (stereo unspecified) as the compound, how does the max response, negative = inhibition read?
Answer: Its max response, negative = inhibition is inactive: 83.1%.

Question: Which max response, negative = inhibition does the source give for `O=C(COc1ccccc1)OC1CN2CCC1CC2` (stereo unspecified) here?
Answer: Its max response, negative = inhibition is inactive: 4.83%.

Question: For `CCc1ccc(OP(C)(=O)N2CCN(c3ccc([N+](=O)[O-])cc3)CC2)cc1` (stereo unspecified), which max response, negative = inhibition is on record?
Answer: The max response, negative = inhibition was inactive: 0.542%.

Question: How did the max response, negative = inhibition turn out when `CP(=O)(Oc1ccccc1)OC(c1ccccc1)C(F)(F)F` (stereo unspecified) was run?
Answer: Its max response, negative = inhibition is inactive: -0.225%.

Question: `COP1(=S)c2c(C)nn(CCC#N)c2N=C(c2ccc(F)cc2)N1C` (stereo unspecified) was tested. Which max response, negative = inhibition did it give?
Answer: The max response, negative = inhibition was inactive: -18.1%.

Question: With `CP(=O)(Nc1ccc(SC(F)(F)F)cc1)Oc1ccc(Cl)cc1` (stereo unspecified) as the compound, how does the max response, negative = inhibition read?
Answer: Its max response, negative = inhibition is inactive: -2.53%.

Question: How did the max response, negative = inhibition turn out when `Cc1cccc(C)c1OP(C)(=O)Nc1ccc(SC(F)(F)F)cc1` (stereo unspecified) was run?
Answer: Its max response, negative = inhibition is inactive: 1.37%.

Question: How did the max response, negative = inhibition turn out when `CCOP(=O)(Nc1cccc2cccnc12)OCC` was run?
Answer: The max response, negative = inhibition was inactive: 6.91%.

Question: How did the max response, negative = inhibition turn out when `CP(=O)(Nc1ccccn1)Oc1ccc(Cl)cc1` (stereo unspecified) was run?
Answer: The max response, negative = inhibition was inactive: 14.1%.

Question: How did the max response, negative = inhibition turn out when `CCC(C)N(CC(C)C)C(=S)SC(NC(C)=O)C(Cl)(Cl)Cl` (stereo unspecified) was run?
Answer: Its max response, negative = inhibition is inactive: -8.23%.

Question: For `CN(C)CCS`, which Potency is on record?
Answer: The Potency was active: 31.6 µM.

Question: For `O=[N+]([O-])c1cc([N+](=O)[O-])c(O)c([N+](=O)[O-])c1.c1ccc(Oc2ccncc2)cc1`, which max response, negative = inhibition is on record?
Answer: The max response, negative = inhibition was inactive: -22.8%.

Question: `CCOC(=O)c1ccc(NP(C)(=O)Oc2ccc(OC)cc2)cc1` (stereo unspecified) was tested. Which max response, negative = inhibition did it give?
Answer: The max response, negative = inhibition was inactive: -13.1%.

Question: `CCOP(C)(=S)SCC(=O)NC(C)C(=O)O` (stereo unspecified) was tested. Which max response, negative = inhibition did it give?
Answer: Its max response, negative = inhibition is inactive: 18.6%.

Question: How did the max response, negative = inhibition turn out when `O=C(OC1CN2CCC1CC2)c1cccc([N+](=O)[O-])c1` (stereo unspecified) was run?
Answer: Its max response, negative = inhibition is inactive: -18.8%.

Question: For `CCCCOc1ccc(C(=O)NCC2(N3CCCCC3)CCCCC2)cc1OC`, which max response, negative = inhibition is on record?
Answer: Its max response, negative = inhibition is inactive: -26.9%.

Question: For `CC1CCNP(=O)(N(CCCl)CCCl)O1` (stereo unspecified), which max response, negative = inhibition is on record?
Answer: Its max response, negative = inhibition is inactive: 4.21%.

Question: Which max response, negative = inhibition does the source give for `CCOC(=O)Nc1ccc([As](=O)(O)O)c(O)c1` here?
Answer: Its max response, negative = inhibition is inactive: -2.7%.

Question: For `O=[N+]([O-])c1ccc(Nc2ccc(Oc3ccc([N+](=O)[O-])cc3[N+](=O)[O-])cc2)c([N+](=O)[O-])c1`, which max response, negative = inhibition is on record?
Answer: Its max response, negative = inhibition is inactive: -13.4%.

Question: For `CP(=O)(Nc1ccccc1Br)Oc1ccccc1` (stereo unspecified), which max response, negative = inhibition is on record?
Answer: Its max response, negative = inhibition is inactive: -28.7%.

Question: `COc1ccccc1OP(C)(=O)Nc1ccccc1` (stereo unspecified) was tested. Which max response, negative = inhibition did it give?
Answer: Its max response, negative = inhibition is inactive: 10.4%.

Question: How did the max response, negative = inhibition turn out when `O=P(Nc1ccccn1)(c1cccc2ccccc12)c1cccc2ccccc12` was run?
Answer: Its max response, negative = inhibition is inactive: -6.47%.

Question: How did the max response, negative = inhibition turn out when `CCOC(=O)Nc1cccc([As](=O)(O)O)c1` was run?
Answer: Its max response, negative = inhibition is inactive: -6.26%.

Question: With `CP(=S)(Nn1cnnc1)Oc1ccccc1` (stereo unspecified) as the compound, how does the max response, negative = inhibition read?
Answer: The max response, negative = inhibition was inactive: 31.2%.

Question: With `O=C(/C=C/c1ccccc1)OC1CN2CCC1CC2` (stereo unspecified) as the compound, how does the max response, negative = inhibition read?
Answer: The max response, negative = inhibition was inactive: -0.694%.

Question: For `CC1=C2N=C(C=C3N=C(C(C)=C4[N-][C@@](C)([C@@H]5N=C1[C@](C)(CCC(=O)NC[C@@H](C)OP(=O)([O-])O[C@H]1[C@@H](O)[C@@H](n6cnc7cc(C)c(C)cc76)O[C@@H]1CO)[C@H]5CC(N)=O)[C@@](C)(CC(N)=O)[C@@H]4CCC(N)=O)[C@@](C)(CC(N)=O)[C@@H]3CCC(N)=O)C(C)(C)[C@@H]2CCC(N)=O.[C-]#N.[Co+3]`, which max response, negative = inhibition is on record?
Answer: Its max response, negative = inhibition is inactive: -3.37%.

Question: Which max response, negative = inhibition does the source give for `CN(C)C1(CNC(=O)c2ccc(S(C)(=O)=O)cc2)CCCCC1` here?
Answer: The max response, negative = inhibition was inactive: -0.61%.

Question: For `O=[N+]([O-])c1cc([N+](=O)[O-])c(Nc2nnnn2CCO)c([N+](=O)[O-])c1`, which max response, negative = inhibition is on record?
Answer: Its max response, negative = inhibition is inactive: -3.62%.
